Measured values from patent US20100179118A1, “CYCLIC AMINOALKYLCARBOXAMIDE DERIVATIVE” (DAINIPPON SUMITOMO PHARMA CO., LTD., priority 2006, published 2010).
This is a selection: effects in other tests are not listed, and their absence says nothing.

Experiments:
[1] = tested on: BN rat DNCB repetitive application dermatitis model; assay: Suppressive action on BN rat DNCB repetitive application dermatitis model; details: oral once a day, AUC of ear thickness increase vs solvent control, male BN rat
Protocol: Suppressive Action on BN Rat DNCB Repetitive Application Dermatitis Model
A 8-week-old male rat was sensitized by applying 30 μL of 1.5 wt % solution of dinitrochlorobenzene (DNCB) dissolved in acetone:olive oil=4:1 solution to the right ear on day 1 and 3 days later. Starting from one week thereafter, the same solution was consecutively applied to the right ear every other day in total of 6 times, whereby chronic dermatitis was induced in which the skin thickness increases with time. As for the level of dermatitis, the thickness was measured with a dial gauge thickness before application of the solution, and expressed by the difference from the measured thickness of the right ear immediately before induction on day 1 of the induction. The drug was suspended in 0.5 wt % tragacanth, and orally administered once a day immediately before induction on day 1 of the induction and after 24 hr value measurement the next day. The changes in the ear tumentia with time were monitored, and the area under the curve in a graph showing the values up to 48 hr after the final induction was calculated, from which the percent suppression relative to the area of the solvent control group was determined. As a comparison control compound, prednisolone, which is a steroid, was used.

[2] = tested on: TMA (trimellitic anhydride) repetitive application dermatitis model; assay: Suppressive action on TMA (trimellitic anhydride) repetitive application dermatitis model; assay type: in vivo; details: dose 20 mg/kg, oral twice (30 min before and 4 hr after induction); ear thickness vs solvent control; male BALB/c mice

Structure (SMILES): O=C(CN1CCCCC1)N(c1ccccc1)C1CCN(C(=O)C2(c3ccc(Cl)cc3)CCCC2)CC1
- suppression (%) at 48 hr after final induction ([1]; dose 2 mg/kg): 25.5%
- suppression (%) at 48 hr after final induction ([1]; dose 5 mg/kg): 45.8%
- right ear suppression (%) at 8 hr after final induction [2]: 48.7%
